According to patent US10564159:

Target: human TSH receptor (wild type), displayed on CHO-Rluc cells (human) (UniProt P16473)
Assay: cell-based or functional assay

Substance: bovine TSH (from UniProt P01217 25-120; P01223 21-132) (ligand)
- luciferase RLU/Sec (net of 0 TSH), 10 µIU TSH/ml, CHO-Rluc cells, Starvation Medium HBSS-NaCl + 222 mM sucrose: 2190 RLU/Sec
- luciferase RLU/Sec (net of 0 TSH), 10 µIU TSH/ml, CHO-Rluc cells, Starvation Medium standard HBSS with 20 mM sucrose: 14400 RLU/Sec
- luciferase RLU/Sec (net of 0 TSH), 10 µIU TSH/ml, CHO-Rluc cells, Stimulation Medium HBSS-NaCl + 111 mM sucrose + 6% PEG-8000: 5980 RLU/Sec
- luciferase RLU/Sec (net of 0 TSH), 10 µIU TSH/ml, CHO-Rluc cells, Stimulation Medium HBSS-NaCl + 222 mM sucrose (no PEG): 1340 RLU/Sec
- luciferase RLU/Sec (net of 0 TSH), 10 µIU TSH/ml, CHO-Rluc cells, medium CHO Char: 5600 RLU/Sec
- luciferase RLU/Sec (net of 0 TSH), 10 µIU TSH/ml, CHO-Rluc cells, medium CHO GM: 782 RLU/Sec
- luciferase RLU/Sec (net of 0 TSH), 1000 µIU TSH/ml, CHO-Rluc cells, Starvation Medium HBSS-NaCl + 222 mM sucrose: 143000 RLU/Sec
- luciferase RLU/Sec (net of 0 TSH), 1000 µIU TSH/ml, CHO-Rluc cells, Starvation Medium standard HBSS with 20 mM sucrose: 157000 RLU/Sec
- luciferase RLU/Sec (net of 0 TSH), 1000 µIU TSH/ml, CHO-Rluc cells, Stimulation Medium HBSS-NaCl + 111 mM sucrose + 6% PEG-8000: 208000 RLU/Sec
- luciferase RLU/Sec (net of 0 TSH), 1000 µIU TSH/ml, CHO-Rluc cells, Stimulation Medium HBSS-NaCl + 222 mM sucrose (no PEG): 82500 RLU/Sec
- luciferase RLU/Sec (net of 0 TSH), 1000 µIU TSH/ml, CHO-Rluc cells, medium CHO Char: 229000 RLU/Sec
- luciferase RLU/Sec (net of 0 TSH), 1000 µIU TSH/ml, CHO-Rluc cells, medium CHO GM: 265000 RLU/Sec
- luciferase RLU/sec (net of 0 TSH), 10 µIU TSH/ml, CHO-Rluc cells starved with Stimulation Medium: -1150 RLU/sec
- luciferase RLU/sec (net of 0 TSH), 1000 µIU TSH/ml, CHO-Rluc cells starved with Stimulation Medium: 47500 RLU/sec
- luciferase RLU/sec (net of zero standard), 10 µIU bovine TSH, CHO-Rluc cells, method of Evans et al.: 4030 RLU/sec
- luciferase RLU/sec (net of zero standard), 1000 µIU bovine TSH, CHO-Rluc cells, method of Evans et al.: 223000 RLU/sec
- luciferase RLU/sec, bTSH 10 µIU/ml, CHO-Rluc cells: 5920 RLU/sec
- luciferase RLU/sec, bTSH 25 µIU/ml, CHO-Rluc cells: 20200 RLU/sec
- luciferase RLU/sec, bTSH 50 µIU/ml, CHO-Rluc cells: 34400 RLU/sec
- luciferase RLU/sec, bTSH 75 µIU/ml, CHO-Rluc cells: 54400 RLU/sec
- luciferase RLU/sec, bTSH 100 µIU/ml, CHO-Rluc cells: 62200 RLU/sec
- three S.D. sensitivity of the luciferase response of CHO-Rluc cells to bTSH: 1.3 µIU TSH/ml
